The values below come from PMC4778717 (ChemMedChem, 2015).

The chains behind the UniProt entries cited, without tags or fusion partners. Residues count along the entry.
UniProt P10408, 1-610: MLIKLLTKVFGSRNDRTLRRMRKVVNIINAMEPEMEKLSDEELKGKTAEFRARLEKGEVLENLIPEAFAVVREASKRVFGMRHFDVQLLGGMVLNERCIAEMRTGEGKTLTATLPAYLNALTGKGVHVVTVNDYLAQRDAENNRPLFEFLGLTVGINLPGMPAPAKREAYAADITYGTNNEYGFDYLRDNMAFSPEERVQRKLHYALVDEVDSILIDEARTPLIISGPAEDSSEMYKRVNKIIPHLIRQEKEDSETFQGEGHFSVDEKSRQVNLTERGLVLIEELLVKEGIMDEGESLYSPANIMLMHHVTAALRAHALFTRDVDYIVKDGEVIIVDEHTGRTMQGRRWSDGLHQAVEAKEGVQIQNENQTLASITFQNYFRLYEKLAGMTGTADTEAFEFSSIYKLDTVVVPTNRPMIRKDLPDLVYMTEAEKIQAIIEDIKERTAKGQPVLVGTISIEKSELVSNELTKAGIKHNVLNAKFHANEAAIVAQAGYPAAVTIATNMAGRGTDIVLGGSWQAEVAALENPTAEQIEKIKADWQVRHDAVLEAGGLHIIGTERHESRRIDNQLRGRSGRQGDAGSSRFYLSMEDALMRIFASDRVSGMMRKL

SMILES strings stand for the structures.

This test concerns the target EcSecAN68 (Escherichia coli, UniProt P10408). Briefly: biochemical. Further details: species or system E. coli.

As to `CSc1nc(C)cc(Sc2nnc(-c3cc(C(F)(F)F)cc(C(F)(F)F)c3)[nH]2)n1` [Compound 7a, 4-((5-(3,5-Bis(trifluoromethyl)phenyl)-4H-1,2,4-triazol-3-yl)thio)-6-methyl-2-(methylthio) pyrimidine], the IC50 turned out to be 25 µM.
